Columns and labels:
MC-3T3-E1 cells [1] = test: Bone nodule formation by MC-3T3-E1 cells, Alizarin Red; format: cell-based, murine; settings: three weeks culture, BMP-2 at 10 ng/mL, CM in the indicated concentrations
Experimental: (§1) The pre-osteoblast murine MC-3T3-E1 cells were cultured in αMEM containing 10% of heat-inactivated FBS with a change of medium every 2nd or 3rd day and then lifted by trypsin treatment when they reached confluence, followed by reseeding of a suitable ratio of the cells (1:3-1:5). To induce bone nodule formation the MC3T3-E1 cells were lifted by trypsin and reseeded in 24-well plates at a density of 75,000 cells/24-well, and then cultured in the presence of 50 μg/mL ascorbic acid and 10 mM β-glycerol-phosphate, for three weeks, with a medium change every 2nd or 3rd day.
Nodule formation was measured using Alizarin Red. After three weeks of culture the osteoblasts cultures were stopped by fixation in 3.7% formaldehyde in PBS for 20 minutes. The cells were stained in 40 mM Alizarin Red pH 4.2 for 10 minutes, and washed thoroughly. Digital histographs of representative areas of stained nodules were taken using an Olympus IX-70 light microscope equipped with an Olympus C5050 Zoom digital camera. Subsequently, the dye was extracted from the cells by incubation in 10% cetylpyridinium chloride for 15 minutes while shaking in the dark, and finally the absorbance at 561 nm was measured using an ELISA reader.

MC-3T3-E1 cells [2] = test: Bone nodule formation by MC-3T3-E1 cells, Von Kossa staining; format: cell-based, murine; settings: three weeks culture, BMP-2 at 10 ng/mL
Experimental: as §1
Nodule formation was also measured by Von Kossa staining of the bone nodules. After stopping of the culture as above, the bone nodules were stained in 2.5% AgNO3 for 30 minutes under intense illumination. The cells were washed thoroughly in milliQ and the staining was further developed by incubation in 1% pyrogallol for 30 seconds. After washing in milliQ, the staining was fixed in 5% sodium thiosulphate for 5 minutes and washed again in milliQ. Finally, digital histographs of representative areas of stained nodules were taken using an Olympus IX-70 light microscope equipped with an Olympus C5050 Zoom digital camera.

B1: Bone Morphogenetic Protein 2 (protein, UniProt P12643 283-396, looked up)
Bone morphogenetic protein 2: QAKHKQRKRLKSSCKRHPLYVDFSDVGWNDWIVAPPGYHAFYCHGECPFPLADHLNSTNHAIVQTLVNSVNSKIPKACCVPTELSAISMLYLDENEKVVLKNYQDMVVEGCGCR
notes: positive control, known to induce bone formation
MC-3T3-E1 cells [1]
  bone nodule formation measured using Alizarin Red: significantly induced bone nodule formation
MC-3T3-E1 cells [2]
  bone nodule formation, Von Kossa staining (qualitative): significantly induced bone nodule formation
